IC50 data for one molecule are collected here from ChEMBL document CHEMBL5260813, “An overview on the recent developments of 1,2,4-triazine derivatives as anticancer compounds” (Eur J Med Chem, 2017).

The target of assay [1] is T1, Tyrosine-protein kinase SYK (Homo sapiens, UniProt P43405). Briefly: Inhibition of human SYK using 5-Fluo-Ahx-GAPDYENLQELNKK-Amid as substrate in presence of ATP by microfluidic mobility shift assay.
The target of assay [2] is T1, Tyrosine-protein kinase SYK. The experiment in a line: Inhibition of SYK in human Ramos cells assessed as reduction in anti IgM-induced phosphorylation of BLNK by flow cytometry assay. It counts as cell-based. (In general: In flow cytometry, cells or beads pass a laser one at a time.)

What is called IC50 is the concentration that inhibits the measured activity by half. For the molecule `Cn1cc2c(Nc3nc(N[C@@H]4CCCC[C@@H]4N)nnc3C(N)=O)cccc2n1`, the values for the IC50 in assay [1] and in assay [2] were 0.8 nM and 14 nM, respectively.
